Measurements reported in patent publication US10618902B2, “Substituted pyrido[2,3-d]pyrimidines as inhibitors of protein kinases” (Celgene CAR LLC, priority 2013, dated 2020).

Chains of the proteins cited; added tags and fusions are not shown. Residues count along the entry.
UniProt P22455, 22-802 limits assumed: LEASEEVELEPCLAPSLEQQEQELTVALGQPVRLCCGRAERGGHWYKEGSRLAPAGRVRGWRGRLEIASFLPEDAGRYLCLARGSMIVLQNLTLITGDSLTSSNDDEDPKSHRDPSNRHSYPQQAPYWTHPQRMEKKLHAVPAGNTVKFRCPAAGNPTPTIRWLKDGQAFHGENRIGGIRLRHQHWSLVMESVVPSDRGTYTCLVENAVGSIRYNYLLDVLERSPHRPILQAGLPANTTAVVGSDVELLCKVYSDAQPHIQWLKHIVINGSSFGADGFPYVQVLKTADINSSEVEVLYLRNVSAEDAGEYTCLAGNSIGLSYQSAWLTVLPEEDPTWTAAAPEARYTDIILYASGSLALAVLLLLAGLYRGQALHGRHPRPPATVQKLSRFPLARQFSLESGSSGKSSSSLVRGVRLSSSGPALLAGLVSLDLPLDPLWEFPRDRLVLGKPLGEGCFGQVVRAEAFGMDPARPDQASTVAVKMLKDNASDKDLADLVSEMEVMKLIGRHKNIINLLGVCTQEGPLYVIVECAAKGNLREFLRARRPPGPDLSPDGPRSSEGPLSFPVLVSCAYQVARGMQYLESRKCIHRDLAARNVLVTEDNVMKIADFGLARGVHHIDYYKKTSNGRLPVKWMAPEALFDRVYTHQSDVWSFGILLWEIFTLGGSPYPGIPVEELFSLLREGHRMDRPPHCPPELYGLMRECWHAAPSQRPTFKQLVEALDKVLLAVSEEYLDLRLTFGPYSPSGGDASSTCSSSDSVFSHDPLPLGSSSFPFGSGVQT

Key:
[1] = test system: Huh7 cells; assay: Cell proliferation, Huh7 (CellTiter Glo); settings: read-out: Cell Proliferation GI50 (nM) HUH, 120 hr
[2] = test system: MDA-MB-453 cells; assay: Cell proliferation, MDA-MB-453 (CellTiter Glo); settings: read-out: Cell Proliferation GI50 (nM) MDA, 96 hr
[3] = target: pFGFR4 (Huh7 cells) (Homo sapiens (Human), UniProt P22455); assay: FGFR4 signaling (pFGFR4) in Huh7 cells (MSD); type: cell-based; settings: read-out: Signaling EC50 (nM) pFGFR4 (Huh)
[4] = target: FGFR4-WT (Homo sapiens (Human), UniProt P22455); assay: Omnia assay for potency against FGFR4 enzyme; type: biochemical; settings: read-out: FGFR4 IC50; method a: FGFR4-WT (Invitrogen) 10 nM, ATP 300 uM, Y10-Sox 10 uM

Row | SMILES | GI50 [1] | GI50 [2] | EC50 [3] | IC50 [4]
1 | C=CC(=O)Nc1cc(-c2nnn(C)n2)ccc1Nc1ncc2cc(-c3c(Cl)c(OC)cc(OC)c3Cl)c(=O)n(C)c2n1 | 101 to 500 nM | < 100 nM | < 100 nM | < 100 nM
2 | C=CC(=O)Nc1cc(C(F)(F)F)ccc1Nc1ncc2cc(-c3c(Cl)c(OC)cc(OC)c3Cl)c(=O)n(C)c2n1 | – | – | < 100 nM | < 100 nM
3 | C=CC(=O)Nc1ccc(F)cc1Nc1ncc2cc(-c3c(Cl)c(OC)cc(OC)c3Cl)c(=O)n(C)c2n1 | – | – | < 100 nM | < 100 nM
4 | C=CC(=O)Nc1cnccc1Nc1ncc2cc(-c3c(Cl)c(OC)cc(OC)c3Cl)c(=O)n(C)c2n1 | 101 to 500 nM | < 100 nM | < 100 nM | < 100 nM
5 | C=CC(=O)Nc1nc(OC)ccc1Nc1ncc2cc(-c3c(Cl)c(OC)cc(OC)c3Cl)c(=O)n(C)c2n1 | > 1000 nM | 101 to 500 nM | < 100 nM | < 100 nM
6 | C=CC(=O)N[C@H]1CN(C(C)=O)C[C@H]1Nc1ncc2cc(-c3c(Cl)c(OC)cc(OC)c3Cl)c(=O)n(C)c2n1 (relative stereo) | 501 to 999 nM | – | < 100 nM | < 100 nM
7 | C=CC(=O)N[C@H]1COC[C@H]1Nc1ncc2cc(-c3c(Cl)c(OC)cc(OC)c3Cl)c(=O)n(CC(O)CO)c2n1 (relative stereo) | 101 to 500 nM | – | < 100 nM | < 100 nM
8 | C=CC(=O)Nc1c(F)cccc1Nc1ncc2cc(-c3c(Cl)c(OC)cc(OC)c3Cl)c(=O)n(C)c2n1 | – | – | < 100 nM | < 100 nM
9 | C=CC(=O)N[C@H]1COC[C@H]1Nc1ncc2cc(-c3c(Cl)c(OC)cc(OC)c3Cl)c(=O)n(CC(O)CO)c2n1 (single isomer, unassigned) | 101 to 500 nM | – | < 100 nM | < 100 nM
10 | C=CC(=O)Nc1cc(C2CC2)ccc1Nc1ncc2cc(-c3c(Cl)c(OC)cc(OC)c3Cl)c(=O)n(C)c2n1 | 101 to 500 nM | < 100 nM | < 100 nM | < 100 nM
11 | C=CC(=O)NC1CSCC1Nc1ncc2cc(-c3c(Cl)c(OC)cc(OC)c3Cl)c(=O)n(C)c2n1 (stereo not shown) | – | – | < 100 nM | < 100 nM
12 | C=CC(=O)N[C@H]1CN(c2ccn(C)n2)C[C@H]1Nc1ncc2cc(-c3c(Cl)c(OC)cc(OC)c3Cl)c(=O)n(C)c2n1 | < 100 nM | < 100 nM | < 100 nM | < 100 nM
13 | C=CC(=O)N[C@H]1COC[C@H]1Nc1ncc2cc(-c3c(Cl)c(OC)cc(OC(F)F)c3Cl)c(=O)n(C)c2n1 | – | – | < 100 nM | < 100 nM
14 | C=CC(=O)Nc1ccc(C)cc1Nc1ncc2cc(-c3c(Cl)c(OC)cc(OC)c3Cl)c(=O)n(C)c2n1 | – | – | < 100 nM | < 100 nM
15 | C#CC(=O)N[C@H]1COC[C@H]1Nc1ncc2cc(-c3c(Cl)c(OC)cc(OC)c3Cl)c(=O)n(C)c2n1 [Compound I-251] | – | – | < 100 nM | < 100 nM
